Tests used:
D-dimer = settings: literature; cited from earlier work
D-dimer protein = target: T1, D-dimer protein (Homo sapiens, UniProt P02679); test: SPR surface competition assay with GPRP
T1 sequence (P02679 114-432 limits assumed): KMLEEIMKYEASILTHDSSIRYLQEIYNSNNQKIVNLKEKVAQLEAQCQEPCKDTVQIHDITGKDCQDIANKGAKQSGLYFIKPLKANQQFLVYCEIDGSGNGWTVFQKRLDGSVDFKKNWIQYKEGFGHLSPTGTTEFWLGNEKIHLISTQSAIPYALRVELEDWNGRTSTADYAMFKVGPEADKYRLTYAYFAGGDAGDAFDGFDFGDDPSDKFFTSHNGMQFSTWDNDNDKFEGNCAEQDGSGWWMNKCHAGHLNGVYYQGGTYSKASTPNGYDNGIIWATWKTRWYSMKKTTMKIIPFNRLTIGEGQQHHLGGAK
T1 sequence (P02675 164-491 partner limits assumed): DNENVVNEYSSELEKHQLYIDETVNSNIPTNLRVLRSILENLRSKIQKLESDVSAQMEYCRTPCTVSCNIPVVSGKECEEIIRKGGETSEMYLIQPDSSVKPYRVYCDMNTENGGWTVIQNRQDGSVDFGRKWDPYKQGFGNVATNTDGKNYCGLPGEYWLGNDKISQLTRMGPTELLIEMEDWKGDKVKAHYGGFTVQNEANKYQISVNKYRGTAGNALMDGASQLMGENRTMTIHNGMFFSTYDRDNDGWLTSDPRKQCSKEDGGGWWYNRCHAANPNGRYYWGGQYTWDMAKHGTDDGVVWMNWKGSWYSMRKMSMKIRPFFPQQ
T1 sequence (P02671 130-216 partner limits assumed): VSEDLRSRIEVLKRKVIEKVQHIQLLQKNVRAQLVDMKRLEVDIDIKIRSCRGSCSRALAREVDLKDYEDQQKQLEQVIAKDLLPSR

IC50 (D-dimer protein): ~50 µM
SMILES: N=C(N)NCCC[C@H](NC(=O)[C@@H]1CCCN1C(=O)CN)C(=O)N1CCC[C@H]1C(=O)O [GPRP]
Kd (D-dimer): 25 µM
